The data set concerns EOC-20 cells.

Read-outs that look alike come from different tables or passages of the source.

Regarding “7-Bis (4-hydroxy-3-methoxyphenyl)-1,6-heptadiene-3,5-dione [Curcumin]”, the LD50 (Table III, MTT viability, by extrapolation through sublethal concentrations) was 120 μm and the LD50 entry (Table V) is reported as “Nontoxic”.

The record behind these values is patent US20040014721A1, “Method for using tethered bis(polyhydroxyphenyls) and O-alkyl derivatives thereof in treating inflammatory conditions of the central nervous system” (Oklahoma Medical Research Foundation, priority 2002, published 2004).
